The values that follow are results of earlier work, collected in patent EP4725948A1, “PYRROLO[2,3-D]PYRIMIDIN-4-AMINE DERIVATIVE AND USE THEREOF IN MEDICINE” (Haisco Pharmaceutical Group Co., Ltd., priority 2023, dated 2024).

For this data set the following is noted: AE frequency, riociguat group, cited from earlier work.

Take `COC(=O)N(C)c1c(N)nc(-c2nn(Cc3ccccc3F)c3ncccc23)nc1N` [riociguat, Riociguat]: for the setting “12-week PATENT-1 study (placebo 8%)”, the dyspepsia/gastritis is 21%. For the same compound, the nausea (12-week PATENT-1 study (placebo 11%)) is 14%. The headache (12-week PATENT-1 study (placebo 18%)) is 27%.
